Data on 1 substance can be found in US11174252B2, “Heterocyclic compounds as kinase inhibitors” (priority 2018, dated 2021).

Sequences of proteins named here, by UniProt entry; tags and fusion partners are left off. Residues count along the entry.
UniProt P11802, whole entry: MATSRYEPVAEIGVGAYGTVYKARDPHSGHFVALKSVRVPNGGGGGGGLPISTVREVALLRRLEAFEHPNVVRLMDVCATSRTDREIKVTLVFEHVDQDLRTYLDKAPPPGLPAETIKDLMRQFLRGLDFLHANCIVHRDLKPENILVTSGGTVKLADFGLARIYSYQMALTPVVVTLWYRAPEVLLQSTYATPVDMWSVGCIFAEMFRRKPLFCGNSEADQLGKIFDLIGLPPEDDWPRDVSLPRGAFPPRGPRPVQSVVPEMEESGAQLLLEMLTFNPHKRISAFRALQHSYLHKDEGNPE
UniProt Q00534, whole entry: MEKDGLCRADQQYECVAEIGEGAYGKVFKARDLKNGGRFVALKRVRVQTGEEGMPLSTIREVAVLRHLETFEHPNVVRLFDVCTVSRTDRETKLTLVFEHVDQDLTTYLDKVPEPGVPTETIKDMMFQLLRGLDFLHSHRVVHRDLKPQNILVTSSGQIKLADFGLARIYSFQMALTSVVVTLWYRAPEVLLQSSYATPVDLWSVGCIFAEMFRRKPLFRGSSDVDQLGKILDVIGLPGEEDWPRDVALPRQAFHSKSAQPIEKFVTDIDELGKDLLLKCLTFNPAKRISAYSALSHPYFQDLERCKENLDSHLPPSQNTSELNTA
UniProt P07333, 20-972 limits assumed: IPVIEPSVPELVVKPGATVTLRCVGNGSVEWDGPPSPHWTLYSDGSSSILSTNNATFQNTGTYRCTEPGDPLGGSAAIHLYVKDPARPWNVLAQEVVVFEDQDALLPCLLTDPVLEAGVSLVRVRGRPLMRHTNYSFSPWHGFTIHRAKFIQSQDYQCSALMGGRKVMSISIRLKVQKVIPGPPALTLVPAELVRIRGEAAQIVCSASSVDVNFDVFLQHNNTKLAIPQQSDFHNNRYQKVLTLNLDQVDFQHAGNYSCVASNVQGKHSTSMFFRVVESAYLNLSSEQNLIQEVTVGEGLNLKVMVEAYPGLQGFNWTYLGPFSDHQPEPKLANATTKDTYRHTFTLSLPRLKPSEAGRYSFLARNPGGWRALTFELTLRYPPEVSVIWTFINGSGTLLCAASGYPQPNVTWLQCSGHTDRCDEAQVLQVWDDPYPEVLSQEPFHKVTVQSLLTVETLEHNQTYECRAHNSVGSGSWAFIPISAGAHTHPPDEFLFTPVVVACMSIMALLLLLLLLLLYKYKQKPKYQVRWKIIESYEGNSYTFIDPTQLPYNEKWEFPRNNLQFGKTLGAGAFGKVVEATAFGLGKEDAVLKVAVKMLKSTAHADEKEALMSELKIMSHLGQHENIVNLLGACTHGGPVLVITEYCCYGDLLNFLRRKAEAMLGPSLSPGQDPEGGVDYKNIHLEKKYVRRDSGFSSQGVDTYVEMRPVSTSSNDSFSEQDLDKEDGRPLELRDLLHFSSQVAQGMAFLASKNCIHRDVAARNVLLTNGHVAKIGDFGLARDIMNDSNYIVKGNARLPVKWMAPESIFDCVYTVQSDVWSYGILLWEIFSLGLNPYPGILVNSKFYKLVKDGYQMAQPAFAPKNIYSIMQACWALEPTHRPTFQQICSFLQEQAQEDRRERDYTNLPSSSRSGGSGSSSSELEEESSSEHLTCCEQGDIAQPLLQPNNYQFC
UniProt P24385, whole entry partner: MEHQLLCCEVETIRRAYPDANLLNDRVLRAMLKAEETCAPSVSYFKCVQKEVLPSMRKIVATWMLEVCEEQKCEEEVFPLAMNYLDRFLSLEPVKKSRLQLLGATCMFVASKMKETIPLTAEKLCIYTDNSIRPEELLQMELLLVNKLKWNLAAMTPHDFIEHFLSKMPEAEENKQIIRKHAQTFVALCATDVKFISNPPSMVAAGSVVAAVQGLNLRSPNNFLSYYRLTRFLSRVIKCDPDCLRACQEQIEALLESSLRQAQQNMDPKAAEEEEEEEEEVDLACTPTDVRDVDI

Assay [1] relates to MCF-7. Put plainly: Cancer cell proliferation assay, single agent. The format is cell-based. As to conditions: read-out: IC50 (nM) MCF-7; MCF-7 cells; treated for 24-168 hours.
The target in assay [2] is CDK4 (Homo sapiens (Human), UniProt P11802). Put plainly: In vitro kinase inhibition, luminescence (ADP-Glo) with retinoblastoma substrate. The class given is biochemical. The following applies: read-out: CDK4 IC50.
Assay [3] concerns the target CDK6 (Homo sapiens (Human), UniProt Q00534). The description is as above. The class given is biochemical. As to conditions: read-out: CDK6 IC50.
In assay [4] the target is FMS kinase (Homo sapiens (Human), UniProt P07333). Put plainly: LanthaScreen kinase assay (ATP, fluorescent-PolyGT substrate, TR-FRET). The class given is biochemical. As to conditions: read-out: FMS IC50.

Only a part of the results on these compounds is given; other tests are left out.

As to “5-fluoro-N-(3-fluoro-4-(4-(pyrrolidin-1-yl) piperidin-1-yl) phenyl)-6-(8-fluoro-4-isopropyl-3,4-dihydro-2H-benzo[b][1,4]oxazin-6-yl)pyridin-2-amine”, the IC50 in assay [1] amounted to 40 nM; in assay [2] it was 1 nM; in assay [3], 5 nM; in assay [4] it was 7.5 nM.
